Reference: EP4825842A1, “DIVALENT BET DECOMPOSITION AGENT AND TARGETING MOLECULE-DRUG COMPLEX” (dated 2026)

Legend:
[1] = system: SU-DHL-4 cells; experiment: Test Example 1: in vitro cell survival inhibitory effect of compound using SU-DHL-4 cell line; details: read-out: SU-DHL-4 IC50; 50% rate of inhibition of cell survival; 72 hours; Cell Counting Kit-8
Protocol: SU-DHL-4 cells (Code No. ACC 495, Deutsche Sammlung von Mikroorga nismen und Zellkulturen GmbH; DSMZ) were cultured in RPMI1640 medium (Code No. 11875-093, Thermo Fisher Scientific Inc.) supplemented with heat-inactivated fetal bovine serum (FBS: Code No. 10099-148, Thermo Fisher Scientific Inc.) in an amount that attained a final concentration of 10 vol% and a penicillin/streptomycin solution (PS: Code No. 15140-122, Thermo Fisher Scientific Inc.) in an amount that attained a final concentration of 1 vol% at 37°C using a CO2 incubator (95% air, 5% CO2). The cells were passaged at intervals of twice per week so as to maintain a cell density of 1 × 10 ^6 cells/mL or less in a volume of 20 to 40 mL.
The cultured SU-DHL-4 cells were seeded at 2000 cells/well to a transparent 384-well plate (Code No. 781182, Greiner bio-one). The cells thus seeded were precultured at 37°C for 18 to 25 hours in a CO2 incubator. Subsequently, a 1, 0.1, or 0.01 mmol/L solution of a test compound in DMSO was prepared, and nine serial dilutions were prepared at a dilution factor of √10 so as to attain 200 times the final concentration using the RPMI1640 medium containing FBS and PS, and added in a volume of 1/200 to each well. The final concentration of DMSO was set to 0.1 vol% for this preparation. The cells thus supplemented with the test compound were cultured at 37°C for 72 hours in a CO2 incubator. Subsequently, 0.020 mL of a solution of Cell Counting Kit-8 (Code No. CK04, Dojindo Laboratories) diluted 2-fold or 4-fold with phosphate-buffered saline (PBS) was added to each well. Color reaction was performed at 37°C for 2 to 3 hours in a CO2 incubator, followed by absorbance measurement at a wavelength of 450 nm using SpectraMax 340PC (Molecular Devices, LLC).

[2] = system: HIP-009 cells; experiment: Test Example 2: in vitro cell survival inhibitory effect of compound using nerve cell (HIP-009 cell); details: for Nerve selectivity: calculated from HIP-009 IC50 and SU-DHL-4 IC50; for IC50: read-out: HIP-009 IC50, 50% rate of inhibition of cell survival, differentiated nerve cells, 7 days, total area occupied by the cells; for Degree of improvement (vs. comparative compound): neural selectivity of each compound / neural selectivity of the comparative compound
Protocol: HIP-009 cells (Code No. 23002-009, Hippocampal Neural Stem Cells, Cosmo Bio Co., Ltd.) were cultured in Neural Stem Cell Growth Media (Code No. 21001-250, Cosmo Bio Co., Ltd.) at 37°C for 2 to 4 weeks using a CO2 incubator (95% air, 5% CO2) until confluency with half-volume media exchanges once or twice per week, then allowed to differentiate in Neuro Transition Media (Code No. 21003-250, Cosmo Bio Co., Ltd.), and seeded at 5000 to 10000 cells/0.04 mL/well to a 384-well plate (Code No. 781091, Greiner bio-one) using Neural Differentiation media (Code No. 210040250, Cosmo Bio Co., Ltd.). Neurites were elongated with half-volume media exchanges once or twice per week. Each medium was supplemented with supplements as described in the instruction and used after being allowed to pass through a 0.22 µm filter. The cells were used in evaluation 3 weeks or later after seeding to the 384-well plate by confirming the elongated neurites.
In order to detach the cells, Trypsin (Code No. 41004-100, Cosmo Bio Co., Ltd.) was added thereto, and the mixture was incubated at 37°C for 3 to 10 minutes using a CO2 incubator (95% air, 5% CO2). Cell detachment reaction was stopped by the addition of Trypsin Inhibitor (Code No. 41005-100, Cosmo Bio Co., Ltd.) in an equal amount.
The 384-well plate was subjected to the following operation before cell seeding. A poly(ethylenimine) solution (Code No. 03880-100ML, Sigma-Aldrich Co., LLC) was diluted with 1 × Borate Buffer (dilution of Pierce 20 × Borate Buffer (Code No. 28341, Thermo Fisher Scientific Inc.)) to prepare a 0.07% poly(ethylenimine) solution, 0.02 mL of which was added to each well and incubated at 37°C for 1 hour. Then, the plate was washed twice with 0.1 mL of PBS and once with 0.1 mL of Otsuka distilled water and left standing overnight for drying. 0.02 mL of Laminin from Engelbreth-Holm-Swarm murine sarcoma basement membrane (Code No. L2020-1MG, Sigma-Aldrich Co., LLC) diluted into 0.0033 mg/mL with PBS was added to each well and incubated at 37°C for 1 hour. Laminin was sucked out, then 0.1 mL of Otsuka distilled water was added to the plate until just before seeding, and the plate was left standing.
The cells of day 0 were photographed using Cell3iMager duos (SCREEN Holdings Co., Ltd.) before addition of a test compound, and the total area occupied by the cells was calculated. Nine serial dilutions of the test compound (10000 mmol/L solution in DMSO) were prepared at a dilution factor of √10 so as to attain 5 times the final concentration using the Neural Differentiation Media, and added in a volume of 1/5 to each well. The final concentration of DMSO was set to 0.1 vol% for this preparation. The cells thus supplemented with the test compound were cultured at 37°C for 7 days in a CO2 incubator (95% air, 5% CO2). The cells of day 7 were photographed using Cell3iMager duos, and the total area occupied by the cells was calculated. […] Rate of inhibition of cell survival(%) = 100−A/B × 100 [formula] • A: Total area of the cells of day 7 • B: Total area of the cells of day 0
The results were as shown in the column "HIP-009 IC50 (nmol/L)" in Table 33 below. The selectivity of each compound for nerve cells was calculated according to the following formula using the results thus obtained and the results of Test Example 1. [formula]
Degree of improvement (vs. the comparative compound) = Neural selectivity of each compound / Neural selectivity of the comparative compound

Row | Structure (SMILES) | IC50 [1] [nM] | Nerve selectivity [2] | IC50 [2] [nM] | Degree of improvement (vs. comparative compound) [2]
1 | CCC(=O)N1c2ccccc2[C@H](Nc2ccc(NC(=O)CNC(=O)Nc3ccc(OCCN4CCN5C(=O)CC[C@H]5C4)c(F)c3)cc2)C[C@@H]1C | 0.012 | 2700 | 32 | –
2 | CCC(=O)N1c2ccccc2[C@H](Nc2ccc(NC(=O)CNC(=O)Nc3ccc(OCCN4CCN(C(C)=O)[C@@H](C)C4)cc3)cc2)C[C@@H]1C | 0.026 | 10000 | 260 | –
3 | CCC(=O)N1c2ccccc2[C@H](Nc2ccc(NC(=O)CNC(=O)Nc3ccc(CCCN4CCN(C)C(=O)[C@H]4C)cc3F)cc2)C[C@@H]1C | 0.13 | 1700 | 200 | –
4 | CCC(=O)N1c2ccccc2[C@H](Nc2ccc(NC(=O)CNC(=O)Nc3ccc(OCCc4cccc(C(=O)N(C)C)c4)cc3)cc2)C[C@@H]1C | 0.33 | 1100 | 350 | –
5 | CCC(=O)N1c2ccccc2[C@H](Nc2ccc(NC(=O)CNC(=O)Nc3ccc(OCCN4CCN(C(C)=O)C[C@H]4C)cc3)cc2)C[C@@H]1C | 0.072 | 7400 | 530 | –
6 | CCC(=O)N1c2ccccc2[C@H](Nc2ccc(NC(=O)CNC(=O)Nc3ccc(OCCN4[C@H](C)CN(C(C)=O)C[C@@H]4C)cc3)cc2)C[C@@H]1C | 0.061 | 1700 | 100 | –
7 | CCC(=O)N1c2cc(F)ccc2[C@H](Nc2ccc(NC(=O)CNC(=O)Nc3ccc(OCCN4CCN(C)C(=O)[C@H]4C)cc3)cc2)C[C@@H]1C (relative stereo) | 0.023 | 6000 | 140 | –
8 | CCC(=O)N1c2ccccc2[C@H](Nc2ccc(NC(=O)CNC(=O)Nc3ccc(OCCN4CCN5C(=O)CC[C@H]5C4)cc3)cc2)C[C@@H]1C | 0.033 | 9600 | 320 | –
9 | CCC(=O)N1c2ccccc2[C@H](Nc2ccc(NC(=O)CNC(=O)Nc3ccc(OCCN4C[C@H](C)N(C(C)=O)[C@@H](C)C4)cc3)cc2)C[C@@H]1C | 0.4 | 2300 | 910 | –
10 | CCC(=O)N1c2ccccc2[C@H](Nc2ccc(NC(=O)CNC(=O)Nc3ccc(NC(=O)CN4CCC(=O)N(C)CC4)cc3)cc2)C[C@@H]1C | 0.31 | 910 | 280 | –
11 | CCC(=O)N1c2ccccc2[C@H](Nc2ccc(NC(=O)CNC(=O)Nc3ccc(OCCN4CCCN(C(C)=O)CC4)cc3)cc2)C[C@@H]1C | 0.27 | 2400 | 650 | –
12 | CCC(=O)N1c2ccccc2[C@H](Nc2ccc(NC(=O)CNC(=O)Nc3ccc(NC(=O)CN4CCN(C)C(=O)[C@H]4C)cc3F)cc2)C[C@@H]1C | 0.14 | 540 | 77 | ④ 12
13 | CCC(=O)N1c2ccccc2[C@H](Nc2ccc(NC(=O)CNC(=O)Nc3ccc(OCCc4cccc(C(=O)NC)c4)cc3)cc2)C[C@@H]1C | 0.042 | 1900 | 80 | ④ 44
